Molecular target: PIM-2 (Homo sapiens, UniProt Q9P1W9)
Assay: PIM-2 assay, IC50 determination (luciferase-luciferin ATP depletion, 10-point dose response)
Format: biochemical
Conditions: 10 nM PIM-2, 1 μM ATP, 50 μM peptide substrate, 15 minutes at room temperature

Sequences of proteins named here, by UniProt entry; tags and fusion partners are left off. A change or cut given only in a name is not applied to a line headed by its entry.
UniProt Q9P1W9: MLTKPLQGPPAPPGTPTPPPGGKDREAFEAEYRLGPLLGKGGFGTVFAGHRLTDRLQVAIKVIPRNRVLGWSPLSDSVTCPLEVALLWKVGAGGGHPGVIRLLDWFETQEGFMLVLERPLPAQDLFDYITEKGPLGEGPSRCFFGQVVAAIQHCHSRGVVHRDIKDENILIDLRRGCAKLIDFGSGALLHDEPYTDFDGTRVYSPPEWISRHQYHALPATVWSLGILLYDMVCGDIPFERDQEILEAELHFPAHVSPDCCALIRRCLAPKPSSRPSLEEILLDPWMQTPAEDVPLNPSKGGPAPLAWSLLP

IC50 [µM] | Structure (SMILES)
0.019 | N[C@H]1CC[C@@H](Nc2cncc(-c3cccc(/C=C/C(=O)O)c3)n2)CC1 [compound 2, (E)-3-{3-[6-(4-Amino-cyclohexylamino)-pyrazin-2-yl]-phenyl}-acrylic acid]
0.012 | N[C@H]1CC[C@H](Nc2cncc(-c3cccc(/C=C/C(=O)O)c3)n2)CC1 [compound 1, (E)-3-{3-[6-(4-Amino-cyclohexylamino)-pyrazin-2-yl]-phenyl}-acrylic acid]

— patent US8318723B2, “Pyrazine compounds, their use and methods of preparation” (Boehringer Ingelheim International GmbH, priority 2006, dated 2012)
